For the assay, the target named is GMPPNP-loaded KRAS G12C (Homo sapiens, UniProt P01116, G12C). In words: KRAS G12C RAF Disruption Assay (HTRF). The following applies: read-out: KRASG12C RAF Disruption Assay (IC50); recombinant GMPPNP-loaded KRAS G12C (5 nM), 20 min with compound; GST-RAF1 RBD (9 nM); HTRF signal. Here is the method: KRAS^G12C RAF Disruption Assay
This is a functional assay that measures activity of compounds against KRAS-G12C^(ON), i.e., the active form of KRAS G12C. Recombinant GMPPNP-loaded KRAS G12C (5 nM) was treated with compound at room temperature for 20 minutes in assay buffer (50 mM Tris pH 7.5, 100 mM NaCl, 1 mM MgCl2, 1 mM DTT, 100ug/ml BSA). Recombinant GST-RAF1 RBD (9 nM) was added, and the reaction mixture was incubated for 20 minutes. SA-Tb (0.25 nM) was added, and the reaction mixture was incubated for 3 hours. HTRF signal was measured (PerkinElmer Envision), the signal ratio (λem 520/λem 495) was calculated, and IC50 values were calculated from the dose-response curve.

By UniProt entry, the sequences of proteins in these tests, tags left out. Residues count along the entry.
UniProt P01116, 1-188 isoform 2 G12C: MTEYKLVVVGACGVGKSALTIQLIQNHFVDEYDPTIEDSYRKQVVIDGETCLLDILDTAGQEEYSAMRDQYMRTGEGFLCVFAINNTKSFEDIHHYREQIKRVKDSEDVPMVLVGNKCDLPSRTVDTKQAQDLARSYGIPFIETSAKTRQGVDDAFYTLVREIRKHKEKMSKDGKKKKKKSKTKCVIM

As to `C#Cc1c(F)ccc2cccc(-c3ncc4c(N5CCN(C(=O)/C(F)=C/c6nccs6)C[C@@H]5C)nc(OC[C@@]56CCCN5C[C@H](F)C6)nc4c3F)c12`, the IC50 stood at 0.3 µM.

As to `C#Cc1cccc2cccc(-c3ncc4c(N5CCC6(CC5)CN(C(=O)/C(F)=C/c5ccccn5)C6)nc(OC[C@@]56CCCN5C[C@H](F)C6)nc4c3F)c12`, the IC50 came to 3.3 µM.

The values are drawn from patent US20240067662A1, “KRAS INHIBITORS” (Bristol-Myers Squibb Company, priority 2022, published 2024).
